Chains of the proteins cited; added tags and fusions are not shown.
UniProt O43613, whole entry: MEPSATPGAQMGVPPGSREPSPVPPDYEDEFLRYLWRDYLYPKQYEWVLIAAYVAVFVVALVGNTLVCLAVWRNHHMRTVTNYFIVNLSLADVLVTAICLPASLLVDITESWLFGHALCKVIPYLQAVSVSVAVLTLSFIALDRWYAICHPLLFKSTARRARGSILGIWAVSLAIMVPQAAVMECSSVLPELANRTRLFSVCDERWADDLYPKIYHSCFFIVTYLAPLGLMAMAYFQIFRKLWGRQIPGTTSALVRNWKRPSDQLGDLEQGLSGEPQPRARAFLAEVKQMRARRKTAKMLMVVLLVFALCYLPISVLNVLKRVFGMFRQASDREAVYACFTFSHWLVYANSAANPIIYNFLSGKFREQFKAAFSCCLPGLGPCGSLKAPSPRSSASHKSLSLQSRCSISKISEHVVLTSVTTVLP

According to ChEMBL document CHEMBL2417373, “Substituted tetrahydroisoquinolines as selective antagonists for the orexin 1 receptor” (J Med Chem, 2013):

Target: Orexin/Hypocretin receptor type 1 (Homo sapiens, UniProt O43613)
Experiment: Antagonist activity at OX1 receptor (unknown origin)

CNC(=O)[C@@H](c1ccccc1)N1CCc2cc(OC)c(OC)cc2[C@@H]1CCc1ccc(C(F)(F)F)cc1 [ALMOREXANT]
IC50: 0.119 µM
